These results are taken from ChEMBL document CHEMBL1125916 (1991).

Structures are written as SMILES.

The species entered for the assay is Mus musculus.

`NP(=O)(OCc1ccccc1)N(CCCl)CCCl` (stereo not drawn) had an LC50 of 6.1 µM.

`COP(N)(=O)N(CCCl)CCCl` (stereo not drawn): the LC50 was 16.5 µM.

In the case of `NP(=O)(OCc1ccc(F)cc1F)N(CCCl)CCCl` (stereo not drawn), the LC50 was found to be 19.6 µM.
